# How the values were obtained:
# expanded OPCs = details: rat
# [1] = system: acutely dissociated and purified rat OPCs; assay: Acute OL differentiation assay (MBP expression/cell, immunofluorescent image quantification)
smiles,measurement,setting,value
CCN(Cc1ccncc1)C(=O)C(CO)c1ccccc1 (centres unmarked) [Tropicamide],0.1 µM (% DMSO),expanded OPCs,96.3 % DMSO
same,1 µM (% DMSO),expanded OPCs,89.1 % DMSO
same,10 µM (% DMSO),expanded OPCs,86.0 % DMSO
same,activation at 2 µM,[1]; read-out: 2 uM (% Quet),1.2%
same,activation at 10 µM,[1]; read-out: 10 uM (% Quet),7.2%
